The values that follow are results of earlier work, collected in publication PMC5201133 (Journal of medicinal chemistry, 2016).

The target in the data set is A3AR. Particulars: read-out: A3AR Ki; rat (r); archival data ref 22, 24–27; cited from earlier work.

As to `Nc1ncnc2c1ncn2[C@@H]1O[C@H](C(=O)NC2CC2)[C@@H](O)[C@H]1O` [compound 9, reference compound], the inhibitory constant (Ki) (usually a measure of affinity in units of concentration, obtained from inhibition or displacement) was 1.6 µM.
